In ChEMBL document CHEMBL6096722, “A Hypoxia-Activated BODIPY-Azo Anticancer Prodrug for Bimodal Chemo-Photodynamic Therapy” (J Med Chem, 2025):

Assay: Retention time of the compound by HPLC-MASS analysis
Format: physicochemical

Work on ClCCN(CCCl)c1ccccc1 yielded a Retention time of 3.3 min.
